Our source for the NADPH fluorescence slope values is PubChem BioAssay AID623 (Vanderbilt High Throughput Screening Facility, 2007).

Sequences of proteins named here, by UniProt entry; tags and fusion partners are left off.
UniProt P62483, whole entry: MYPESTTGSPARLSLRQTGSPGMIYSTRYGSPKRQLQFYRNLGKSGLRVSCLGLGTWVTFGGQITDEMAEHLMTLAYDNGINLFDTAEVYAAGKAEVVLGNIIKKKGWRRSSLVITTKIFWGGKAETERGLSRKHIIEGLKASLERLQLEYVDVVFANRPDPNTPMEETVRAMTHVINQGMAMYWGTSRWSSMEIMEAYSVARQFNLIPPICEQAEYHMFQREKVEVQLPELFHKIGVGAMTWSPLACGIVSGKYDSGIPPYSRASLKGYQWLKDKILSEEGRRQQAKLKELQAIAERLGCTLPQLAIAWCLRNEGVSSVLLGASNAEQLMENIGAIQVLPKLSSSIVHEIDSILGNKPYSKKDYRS

SMILES strings stand for the structures. This is a selection; strong and weak results do not stand in their true shares. Calls of active or inactive are those of the source.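 The calls were made as follows: active = NADPH fluorescence slope more negative than the mean of all samples by about 3 SD, 99.7% confidence; inactive = the rest.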

In the assay the target is Voltage-gated potassium channel subunit beta-2 (Rattus norvegicus) (UniProt P62483). Kind of assay: enhancers of rat Kvbeta2 NADPH turnover – biochemical, NADPH fluorescence, primary screen (AID 623).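 Also: fluorescence intensity change per second fitted from 20 to 320 s.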 Particulars: Recombinant KvBeta, NADPH fluorescence decrease slope, 10 min; at 10 µM; hits give low values.
As to `Cc1ccc(C)c(NP(C)(=O)Oc2ccccc2)c1` (stereo unspecified), the NADPH fluorescence slope was inactive: 3.4e-06. As for `CP(=S)(Nn1cnnc1)Oc1ccccc1` (stereo unspecified), the figure is inactive: -4.1e-06; as for `CCN(CC)CC(O)COC(=O)C(O)(c1ccccc1)C1CCCCC1` (stereo unspecified), inactive: -9.8e-05.

As for `CP(=O)(Nc1ccccn1)Oc1ccccc1` (stereo unspecified), the NADPH fluorescence slope was inactive: -0.000116.

Consider `CP(=O)(Nc1ccc2c(c1)OCCO2)Oc1ccccc1` (stereo unspecified), for which the NADPH fluorescence slope was inactive: -2.1e-05. The same measure for `CN(C)CCOC(=O)C(O)(c1ccccc1)C1CCCCC1` (stereo unspecified): inactive: -0.000222.
